Data published in article PMC9246256, “Structure-based optimization of type III indoleamine 2,3-dioxygenase 1 (IDO1) inhibitors” (Journal of Enzyme Inhibition and Medicinal Chemistry, 2022).

Chains of the proteins cited; added tags and fusions are not shown.
UniProt P14902, whole entry: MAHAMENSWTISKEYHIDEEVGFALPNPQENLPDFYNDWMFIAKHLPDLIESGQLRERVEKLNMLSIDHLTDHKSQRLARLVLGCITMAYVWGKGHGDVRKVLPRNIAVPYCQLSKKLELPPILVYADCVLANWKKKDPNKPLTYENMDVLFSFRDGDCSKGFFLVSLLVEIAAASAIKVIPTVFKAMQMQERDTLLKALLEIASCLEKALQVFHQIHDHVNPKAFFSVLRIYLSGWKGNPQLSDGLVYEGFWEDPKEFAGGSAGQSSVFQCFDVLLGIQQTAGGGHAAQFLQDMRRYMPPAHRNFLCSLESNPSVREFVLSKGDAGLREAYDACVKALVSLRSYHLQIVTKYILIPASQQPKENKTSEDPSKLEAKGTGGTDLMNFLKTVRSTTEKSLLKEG

Assays:
HEK 293 T cells = conditions: previously determined; 200 µM; ref 1 of Supporting Information (Röhrig et al. 2021); cited from earlier work
hIDO1 = hIDO1 (Homo sapiens, UniProt P14902); conditions: previously determined, ref 1 of Supporting Information (Röhrig et al. 2021), cited from earlier work
[1] = target: purified recombinant IDO1 (Homo sapiens, UniProt P14902); assay: Enzymatic IDO1 inhibition assay (ascorbate/methylene blue reduction system, HPLC detection of kynurenine); assay type: biochemical; conditions: ligand efficiency, LE = -RT log(IC50)/number of heavy atoms, from enzymatic IC50

Row | LE [kcal/mol/HA] [1] [kcal/mol/HA] | SMILES | Tox. [%] (HEK 293 T cells) | Inh. [%] (hIDO1; 200 µM) | IC50 (hIDO1; read-out: IC50 [µM] (cellular))
1 | 0.61 | Nc1ccc(Cl)cc1-c1cn[nH]n1 | 26 | 100 | 23
2 | 0.56 | Cc1ccc(Cl)cc1-c1cn[nH]n1 |  |  | 
